Source: patent publication US8674113B2, “Compounds” (Boehringer Ingelheim International GmbH, priority 2010, dated 2014)

Amino acid sequences for entries named in this document (tags omitted).
UniProt O14684, whole entry: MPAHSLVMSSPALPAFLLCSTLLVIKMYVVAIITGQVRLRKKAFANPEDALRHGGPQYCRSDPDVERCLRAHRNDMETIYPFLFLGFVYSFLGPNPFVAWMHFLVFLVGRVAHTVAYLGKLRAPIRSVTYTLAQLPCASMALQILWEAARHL

Experiments:
mPGES-1 in A549 cells = mPGES-1 in A549 cells (Homo sapiens (Human), UniProt O14684); assay: A549 cell-based assay (PGE2 formation, 50% human serum); conditions: read-out: mPGES-1 inhibitory effect IC50 in the cell assay, IL-1β 5 ng/ml, 10 nM arachidonic acid, 20-24 h
[1] = target: recombinant human mPGES-1 (Homo sapiens (Human), UniProt O14684); assay: mPGES-1 enzyme assay (HTRF detection of PGE2); conditions: read-out: mPGES-1 inhibitory effect IC50 in the enzyme assay; recombinant human mPGES-1 microsomes, PGH2 2 μM, 60 seconds

Question: Which results are given for `CC(C)(C)C(=O)NCc1ccc(Cl)c(Nc2nc3cc(C(=O)N[C@H]4CC[C@H](C(F)(F)F)CC4)c(N4CCC(F)(F)CC4)cc3n2CC(F)F)c1Cl` (relative stereo)?
Answer: IC50 (mPGES-1 in A549 cells): < 1 nM; IC50 [1]: 2 nM
